From patent US6979436B2, “Opioid metallopeptide compositions and methods” (Palatin Technologies, Inc., priority 1999, dated 2005)

Chains of the proteins cited; added tags and fusions are not shown. Lines headed by an entry give the natural chain unless they say otherwise; changes in a name come on top.
UniProt P32300, whole entry: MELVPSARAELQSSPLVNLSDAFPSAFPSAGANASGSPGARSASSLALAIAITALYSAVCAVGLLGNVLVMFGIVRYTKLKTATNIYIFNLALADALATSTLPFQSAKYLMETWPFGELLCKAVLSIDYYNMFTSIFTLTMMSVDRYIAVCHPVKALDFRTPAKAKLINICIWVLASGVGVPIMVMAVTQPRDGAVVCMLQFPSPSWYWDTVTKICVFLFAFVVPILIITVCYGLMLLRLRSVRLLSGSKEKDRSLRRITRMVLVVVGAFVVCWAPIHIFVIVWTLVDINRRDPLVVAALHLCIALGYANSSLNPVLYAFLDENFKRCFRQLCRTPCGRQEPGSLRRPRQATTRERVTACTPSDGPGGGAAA

Biological target: δ receptors, mouse vas deferens (MVD) (Mus musculus, UniProt P32300)
Test: mouse vas deferens (MVD) in vitro functional assay
Conditions: read-out: In Vitro Functional Assay [ED50 in μM] MVD, rhenium-complexed peptides

YCGFC [Tyr-Cys-Gly-Phe-Cys-NH2]
EC50: 1.47 µM
